High-throughput results deposited in PubChem by Broad Institute.
ERp5 inh – ERp5 (human) disulfide isomerase inhibition | inhibition, % at 9.99 µM | ERp5 insulin aggregation, absorbance 650 nm, 90 min | AID 651711 | 350,000 compounds, 0.05% hits | Q15084;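 active = mean replicate inhibition above about 25%, with every replicate also reaching it, limit read from the data, passing the limit was not always enough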
PDI inh – inhibitors of human protein disulfide isomerase | 350,000 compounds, 0.052% hits | PDI insulin aggregation turbidity, A650, 90 min | AID 588391 | inhibition, % at 10 µM | P07237;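 active = mean inhibition across replicates of 30% or more, whatever share of single replicates reach that level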
Cneo AK release – causes C. neoformans cell lysis | adenylate kinase release luminescence, 4 h; normalised: neutral wells 0, clomiphene wells 100 | lysis activity, % at 15 µM | 360,000 compounds, 0.2% hits | AID 651654;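 active = mean lysis activity across replicates of at least 80%, whatever share of replicates individually reach that level; inactive = mean lysis activity below 80%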
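Test system: log-phase Cryptococcus neoformans yeast cells. Input: 5 × 10^6 yeast cells/mL. Medium: fresh YPD growth medium. Doses: single dose. Incubation: static 4 h at 37 °C with compound, 1 h detection. Measured by: luminescent adenylate kinase detection reagent. Read-out: signal increase indicating cell lysis. Benchmarks: Clomiphene.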
Yeast UUG start – modulators of yeast start codon fidelity, primary screen, whole organism, S. cerevisiae, single point, plate reader; S. cerevisiae UUG-firefly luciferase reporter, luminescence/redox ratio; activity score, % at 18.7 µM; 0.13% of 350,000 active; AID 602363, 2012;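 active = replicate mean at a twofold rise or more, about +100% in these data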;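 also: firefly luciferase made from a UUG start codon reports start codon fidelity; reporter light over untreated wells divided by growth signal over untreated wells; some hits fall short of that in this replicate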
A number is an active result; 0 = inactive; - = no result given. Rows were chosen to be rich in hits. Some 0.34% of all compounds tested hit in one or more screens of this group.

SMILES	ERp5 inh	PDI inh	Cneo AK release	Yeast UUG start
C[C@H](CO)N1C[C@H](C)[C@@H](CN(C)Cc2ccc(Oc3ccccc3)cc2)Oc2ccc(NS(=O)(=O)c3ccc(Cl)cc3)cc2C1=O	0	-	0	0
CCOC(=O)c1c(CN2CCN(CCO)CC2)n(-c2ccccc2)c2cc(Br)c(O)cc12	0	58	-	-
CCOC(=O)c1c(CN2CCN(C)CC2)n(-c2ccccc2)c2cc(Br)c(O)cc12	0	0	-	-
C[C@@H]1CN([C@H](C)CO)C(=O)c2cc(C3=CCCCC3)cnc2O[C@@H]1CN(C)Cc1ccc(C(=O)O)cc1	0	-	0	0
C[C@H]1CN([C@@H](C)CO)C(=O)c2cc(-c3cncnc3)cnc2O[C@H]1CN(C)C(=O)c1ccccc1F	0	-	90	0
C[C@H]1CN([C@@H](C)CO)C(=O)c2cc(-c3cccc(F)c3)cnc2O[C@H]1CN(C)S(=O)(=O)c1cccc(F)c1	0	-	0	0
COc1ccc(-c2cnc3c(c2)C(=O)N([C@H](C)CO)C[C@H](C)[C@H](CN(C)S(C)(=O)=O)O3)cc1	0	-	0	0
COc1ccc(-c2cnc3c(c2)C(=O)N([C@@H](C)CO)C[C@@H](C)[C@@H](CN(C)S(C)(=O)=O)O3)cc1	0	-	93	0
C[C@H]1CN([C@@H](C)CO)C(=O)c2cc(-c3ccc(F)cc3)cnc2O[C@@H]1CN(C)CC1CCCCC1	0	-	90	0
COc1cccc(S(=O)(=O)N(C)C[C@@H]2Oc3ncc(-c4cccc(F)c4)cc3C(=O)N([C@H](C)CO)C[C@@H]2C)c1	0	-	112	0
O=C(C[C@H]1CC[C@@H](NC(=O)C2CCOCC2)[C@H](CO)O1)NCc1ccncc1	0	-	-	-
C[C@H](CO)N1C[C@H](C)[C@@H](CN(C)Cc2ccc(C(F)(F)F)cc2)OCCCC[C@H](C)Oc2ccc(NC(=O)Nc3ccc(F)cc3)cc2C1=O	0	-	0	0
COc1ccc(-c2cnc3c(c2)C(=O)N([C@H](C)CO)C[C@H](C)[C@H](CN(C)Cc2ccc(F)cc2)O3)cc1	0	-	98	0
C[C@@H]1CN([C@@H](C)CO)C(=O)c2cc(-c3cccc(F)c3)cnc2O[C@H]1CN(C)Cc1ccccc1	0	-	0	0
C[C@@H]1CN([C@H](C)CO)C(=O)c2cc(-c3cccc(F)c3)cnc2O[C@H]1CN(C)Cc1ccccc1	0	-	116	0
C[C@@H]1CN([C@@H](C)CO)C(=O)c2cc(NC(=O)Nc3ccccc3)ccc2O[C@@H]1CN(C)Cc1ccc(C(=O)O)cc1	0	-	0	0
C[C@@H]1CN([C@H](C)CO)C(=O)c2c(c3ccccc3n2C)-c2ccccc2CO[C@H]1CN(C)S(=O)(=O)c1ccsc1	0	-	0	-
CCOC(=O)C1CCN(c2c(NCCCN(C)C3CCCCC3)c(=O)c2=O)CC1	0	34	0	0
CCOC(=O)C1CCN(c2c(NCCCN3CCCCC3)c(=O)c2=O)CC1	0	0	0	0
C[C@@H]1CN([C@H](C)CO)C(=O)c2cc(NC(=O)Nc3ccc4c(c3)OCO4)ccc2O[C@H]1CN(C)Cc1ccc(Oc2ccccc2)cc1	0	-	0	0
C[C@@H]1CN([C@@H](C)CO)C(=O)c2cc(NC(=O)Nc3ccc4c(c3)OCO4)ccc2O[C@H]1CN(C)Cc1ccc(Oc2ccccc2)cc1	0	-	89	0
C[C@H](CO)N1C[C@H](C)[C@@H](CN(C)Cc2ccc(Oc3ccccc3)cc2)Oc2ccc(NC(=O)Nc3ccc4c(c3)OCO4)cc2C1=O	0	-	101	0
O=C(Nc1cccc(F)c1)N[C@H]1CC[C@@H](CCNS(=O)(=O)c2cccc(Cl)c2)O[C@H]1CO	0	-	0	-
Cc1ccccc1S(=O)(=O)N[C@@H]1CC[C@H](CCNS(=O)(=O)c2cccc(F)c2)O[C@@H]1CO	0	-	0	0
O=C(Nc1cccc(F)c1)N[C@H]1CC[C@H](CCNS(=O)(=O)c2cccc(Cl)c2)O[C@@H]1CO	0	-	105	-
SMILES	ERp5 inh	PDI inh	Cneo AK release	Yeast UUG start
Cc1ccccc1S(=O)(=O)N[C@@H]1CC[C@H](CCNS(=O)(=O)c2cccc(F)c2)O[C@H]1CO	0	-	90	0
Cc1ccccc1S(=O)(=O)N[C@H]1CC[C@H](CCNS(=O)(=O)c2cccc(F)c2)O[C@H]1CO	0	-	93	0
COCc1cn(CC[C@@H]2CC[C@H](NC(=O)Nc3ccc(C(F)(F)F)cc3)[C@H](CO)O2)nn1	0	-	0	-
Cc1ccccc1S(=O)(=O)N[C@@H]1CC[C@@H](CCn2cc(Cc3ccccc3)nn2)O[C@@H]1CO	0	-	0	0
O=C(C[C@@H]1CC[C@@H](NC(=O)c2ccncc2)[C@@H](CO)O1)NCc1ccncn1	0	-	-	-
COCC(=O)N1[C@@H](CO)[C@@H](c2ccccc2)C12CN(C(=O)NC1CCCCC1)C2	0	-	-	-
